From patent US9952217B2, “Anti-HBc quantitative detection method and uses thereof in monitoring and controlling disease progression of chronic hepatitis B patient and in predicting therapeutic effect” (priority 2012, dated 2018) come the findings set out here.

This data set concerns hepatitis B virus. Put plainly: Peginterferon alpha-2a therapy of HBeAg positive chronic hepatitis B patients (Cohort B). The format is in vivo, human. How it is done: Patient cohort B: 48 HBeAg positive patients, all patients accepted therapy of peginterferon alpha-2a (long-acting interferon α-2a, 180 μg/week), for 24 weeks in total, and were follow-up visited for 24 weeks after stop of therapy.
The above patients before therapy all met the criteria of disease adaptable for therapy as recommended by the Guide of Clinical Management of Chronic Hepatitis B of APASL: HBsAg was positive for consecutive 1 year or more, HBeAg was positive and anti-HBe was negative, serum ALT level was higher than 2 times of ULN; the patients were chosen to exclude possibility of having accompanied infection of hepatitis C virus (HCV), human immunodeficiency virus (HIV), hepatitis D virus (HDV), hepatitis E virus (HEV), and have no clinical medicine evidence of having accompanied autoimmune or metabolic liver diseases.
It was performed according to the method described in section 4.2 of Example 4.
It was performed according to the method described in section 4.3 of Example 4.
Main therapeutic end was defined when HBeAg seroconversion occurred at follow-up visit end.
All statistic methods were performed according to those described in Example 4.

Consider “peginterferon alpha-2a [long-acting interferon]”, for which the “therapeutic effective rate (HBeAg seroconversion at follow-up visit end)” value (all 48 patients, 180 μg/week for 24 weeks, follow-up 24 weeks after stop) turned out to be 47.9%. For the same substance, the “response rate (HBeAg seroconversion after therapy)” value (baseline anti-HBc 9000-29000 IU/ml (n=10)) is 60.0% and the “response rate (HBeAg seroconversion after therapy)” value (baseline anti-HBc ≥29000 IU/ml (n=15)) is recorded as 66.7%. Further, under “cutoff 9000 IU/ml baseline anti-HBc”, the “ratio of occurrence rates (Risk Ratio, RR) of HBeAg seroconversion between high and low anti-HBc groups” value stood at 2.10. Also, the “effective rate (HBeAg seroconversion at follow-up visit end)” value reads like this: (patients with baseline anti-HBc greater than 9000 IU/ml (n=25)) 64.0%; (patients with baseline anti-HBc less than 9000 IU/ml (n=23)) 30.4%.
